{"sequences": {"note": "Chains of the proteins cited; added tags and fusions are not shown. Lines headed by an entry give the natural chain unless they say otherwise; changes in a name come on top.", "UniProt Q96EB6": "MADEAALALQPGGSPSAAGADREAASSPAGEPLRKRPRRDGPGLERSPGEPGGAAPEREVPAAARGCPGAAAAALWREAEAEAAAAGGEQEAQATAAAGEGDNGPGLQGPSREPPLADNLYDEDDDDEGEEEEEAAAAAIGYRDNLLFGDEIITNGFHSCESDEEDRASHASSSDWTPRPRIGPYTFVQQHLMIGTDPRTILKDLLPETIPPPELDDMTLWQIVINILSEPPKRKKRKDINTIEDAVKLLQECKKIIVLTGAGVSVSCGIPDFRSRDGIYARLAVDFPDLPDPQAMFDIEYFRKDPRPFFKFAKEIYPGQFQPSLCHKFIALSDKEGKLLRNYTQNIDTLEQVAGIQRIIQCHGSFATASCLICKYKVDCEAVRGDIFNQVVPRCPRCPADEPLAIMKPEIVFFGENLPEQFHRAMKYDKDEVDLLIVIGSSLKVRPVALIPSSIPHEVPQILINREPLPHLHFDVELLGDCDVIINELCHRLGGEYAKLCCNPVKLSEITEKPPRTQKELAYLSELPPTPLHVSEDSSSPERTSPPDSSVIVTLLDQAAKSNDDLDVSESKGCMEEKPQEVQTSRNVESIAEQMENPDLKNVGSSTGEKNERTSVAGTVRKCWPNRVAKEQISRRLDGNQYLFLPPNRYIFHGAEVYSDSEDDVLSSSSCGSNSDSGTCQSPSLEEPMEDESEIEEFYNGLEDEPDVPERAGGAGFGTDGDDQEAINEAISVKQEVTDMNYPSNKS"}, "source": "patent US8501991B2", "about": "“P53 activating compounds” (University Court of the University of Dundee, priority 2006, dated 2013)", "key": {"[1]": {"test_system": "p53-dependent transcription", "assay": "p53-dependent transcription in T22 RGC-ΔFos-lacZ cells (primary screen, beta-galactosidase/CPRG)", "assay_type": "cell-based", "conditions": "JJ91 activity taken as 100%"}, "SirT1": {"target": "SirT1 (Homo sapiens (Human), UniProt Q96EB6)", "assay": "In vitro deacetylation assay (Fluor de Lys SirT1 Fluorescent Activity Assay)", "assay_type": "biochemical"}}, "data": [{"smiles": "CN(C)CCCCC(=O)Nc1ccc(NC(=S)NC(=O)c2ccc(C(C)(C)C)cc2)cc1.Cl", "note": "[Tenovin 6, 5-Dimethylamino-pentanoic acid {4-[3-(4-tert-butyl-benzoyl)-thioureido]-phenyl}-amide hydrochloride]", "values": [{"measurement": "Bioactivity (relative to JJ91)", "setting": "[1]", "value": "Active (63.8%)"}, {"measurement": "inhibition of SirT1 activity (in words)", "setting": "SirT1", "value": "particularly effective in inhibiting SirT1 activity"}]}]}
